The assay has as its system HBV (genotype C_AT; wild-type strain). The assay can be described thus: Serum HBV DNA in chimeric mice having human liver infected with genotype C HBV (Example 2). The class given is in vivo, Hepatitis B virus. The conditions noted are these: after 14 days, PEG-IFN 30 μg/kg, compound of formula (III) 10 mg/kg (FIG. 2). The protocol: The inhibitory activity of the compound represented by formula (III) was assessed using chimeric mice (purchased from PhoenixBio Co., Ltd.) having human liver infected with wild-type HBV strain (genotype C_AT; wild-type strain).
Specifically, the compound represented by formula (III) and/or PEG-IFN (Chugai Pharmaceutical Co.) were administered by intravenous or subcutaneous injection to mice infected with genotype C HBV (C_JPNAT; reference: Sugiyama) according to Table 1. Then, blood was collected from the mice.
In Table 1, circle represents the timing of blood collection; 30 indicates administration of PEG-IFN at 30 μg/kg; 10+30 indicates administration of the compound represented by formula (III) at 10 mg/kg in combination with PEG-IFN at 30
Next, serum HBV was purified by the same method as described in Example 1, and HBV was quantified by measuring HBV-DNA using real-time PCR method. The sequences of primers HBSF2: 5′-CTTCATCCTGCTGCTATGCCT-3′[nt 406-426] […] (SEQ ID NO: 5), and the sequence of TaqMan probe HBSP2 (nt 461-488) (5′-ATGTTGCCCGTTTGTCCTCTAATTCCA-3′ (SEQ ID NO: 6)) were the same as those described in the reference (Abe A, Inoue K, Tanaka T, Kato J, Kajiyama N, Kawaguchi R, Tanaka S, et al. Quantitation of hepatitis B virus genomic DNA by real-time detection PCR. J Clin Microbiol (1999) 37: 2899-2903).

Consider “PEG-IFN: PEG-IFN used in Examples 2 to 5 herein refers to Peginterferon α-2a (Pegasys)”, for which the “decrease of serum level of HBV DNA” value is “about 1.4 Log”.

Source of the values: patent US20110160252A1, “PHARMACEUTICAL COMPOSITIONS FOR TREATMENT OR PREVENTION OF HBV INFECTION” (priority 2008, published 2011).
